Experimental data taken from PubChem BioAssay (NCI).
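Five compound concentrations were applied to cells in 96-well plates for 48 hours; endpoints were derived by simple linear interpolation of the resulting dose-response curve. GI50 marks 50% less growth. TGI denotes the concentration required for complete inhibition of growth.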

Key:
Experiment in all cases: NCI-60 cell line screen, 48 h
CAKI-1 renal = system: CAKI-1 renal
SK-OV-3 ovarian = system: SK-OV-3 ovarian
ACHN renal = system: ACHN renal
NCI-H522 lung = system: NCI-H522 lung
HS 578T breast = system: HS 578T breast
SNB-75 CNS = system: SNB-75 CNS
LOX IMVI melanoma = system: LOX IMVI melanoma
MOLT-4 leukemia = system: MOLT-4 leukemia
CCRF-CEM leukemia = system: CCRF-CEM leukemia
KM12 colon = system: KM12 colon
HOP-92 NSCLC = system: HOP-92 NSCLC
TK-10 renal = system: TK-10 renal
SK-MEL-2 melanoma = system: SK-MEL-2 melanoma
M14 melanoma = system: M14 melanoma
RXF 393 renal = system: RXF 393 renal
HCT-116 colon = system: HCT-116 colon
MDA-N = system: MDA-N
MDA-MB-231 breast = system: MDA-MB-231 breast
SN12C renal = system: SN12C renal
UACC-62 melanoma = system: UACC-62 melanoma
EKVX NSCLC = system: EKVX NSCLC
PC-3 prostate = system: PC-3 prostate
HT29 colon = system: HT29 colon
IGROV1 ovarian = system: IGROV1 ovarian
K-562 leukemia = system: K-562 leukemia
SF-295 CNS = system: SF-295 CNS
RPMI-8226 leukemia = system: RPMI-8226 leukemia
UO-31 renal = system: UO-31 renal
U251 CNS = system: U251 CNS
COLO 205 colon = system: COLO 205 colon
UACC-257 melanoma = system: UACC-257 melanoma
SK-MEL-5 melanoma = system: SK-MEL-5 melanoma
A549 NSCLC = system: A549 NSCLC
SF-268 CNS = system: SF-268 CNS
OVCAR-3 ovarian = system: OVCAR-3 ovarian
DU-145 prostate = system: DU-145 prostate
OVCAR-4 ovarian = system: OVCAR-4 ovarian
HCT-15 colon = system: HCT-15 colon
SNB-19 CNS = system: SNB-19 CNS
NCI-H460 lung = system: NCI-H460 lung
HOP-62 NSCLC = system: HOP-62 NSCLC
MALME-3M melanoma = system: MALME-3M melanoma
HL-60(TB) leukemia = system: HL-60(TB) leukemia
SW-620 colon = system: SW-620 colon
OVCAR-8 ovarian = system: OVCAR-8 ovarian
MCF7 breast = system: MCF7 breast
786-0 renal = system: 786-0 renal
OVCAR-5 ovarian = system: OVCAR-5 ovarian
SF-539 CNS = system: SF-539 CNS
NCI-H23 lung = system: NCI-H23 lung
T-47D breast = system: T-47D breast
SK-MEL-28 melanoma = system: SK-MEL-28 melanoma
NCI-H322M lung = system: NCI-H322M lung
MDA-MB-435 = system: MDA-MB-435
A498 renal = system: A498 renal
HCC-2998 colon = system: HCC-2998 colon
SR leukemia = system: SR leukemia
NCI/ADR-RES ovarian = system: NCI/ADR-RES ovarian

## O=C1CCC(C(=O)OC2CN3CCC2CC3)C(=O)N1 (stereo unspecified)
CAKI-1 renal
  GI50: > 100 µM
  TGI: > 100 µM
SK-OV-3 ovarian
  GI50: > 100 µM
  TGI: > 100 µM
ACHN renal
  GI50: > 100 µM
  TGI: > 100 µM
NCI-H522 lung
  GI50: > 100 µM
  TGI: > 100 µM
HS 578T breast
  GI50: > 100 µM
  TGI: > 100 µM
SNB-75 CNS
  GI50: > 100 µM
  TGI: > 100 µM
LOX IMVI melanoma
  GI50: > 100 µM
  TGI: > 100 µM
MOLT-4 leukemia
  GI50: > 100 µM
  TGI: > 100 µM
CCRF-CEM leukemia
  GI50: > 100 µM
  TGI: > 100 µM
KM12 colon
  GI50: > 100 µM
  TGI: > 100 µM
HOP-92 NSCLC
  GI50: > 100 µM
  TGI: > 100 µM
TK-10 renal
  GI50: > 100 µM
  TGI: > 100 µM
SK-MEL-2 melanoma
  GI50: > 100 µM
  TGI: > 100 µM
M14 melanoma
  GI50: > 100 µM
  TGI: > 100 µM
RXF 393 renal
  GI50: > 100 µM
  TGI: > 100 µM
HCT-116 colon
  GI50: > 100 µM
  TGI: > 100 µM
MDA-N
  GI50: > 100 µM
  TGI: > 100 µM
MDA-MB-231 breast
  GI50: > 100 µM
  TGI: > 100 µM
SN12C renal
  GI50: > 100 µM
  TGI: > 100 µM
UACC-62 melanoma
  GI50: > 100 µM
  TGI: > 100 µM
EKVX NSCLC
  GI50: > 100 µM
  TGI: > 100 µM
PC-3 prostate
  GI50: > 100 µM
  TGI: > 100 µM
HT29 colon
  GI50: > 100 µM
  TGI: > 100 µM
IGROV1 ovarian
  GI50: > 100 µM
  TGI: > 100 µM
K-562 leukemia
  GI50: > 100 µM
  TGI: > 100 µM
SF-295 CNS
  GI50: > 100 µM
  TGI: > 100 µM
RPMI-8226 leukemia
  GI50: > 100 µM
  TGI: > 100 µM
UO-31 renal
  GI50: 78.3 µM
  TGI: > 100 µM
U251 CNS
  GI50: > 100 µM
  TGI: > 100 µM
COLO 205 colon
  GI50: > 100 µM
  TGI: > 100 µM
UACC-257 melanoma
  GI50: > 100 µM
  TGI: > 100 µM
SK-MEL-5 melanoma
  GI50: > 100 µM
  TGI: > 100 µM
A549 NSCLC
  GI50: > 100 µM
  TGI: > 100 µM
SF-268 CNS
  GI50: > 100 µM
  TGI: > 100 µM
OVCAR-3 ovarian
  GI50: > 100 µM
  TGI: > 100 µM
DU-145 prostate
  GI50: > 100 µM
  TGI: > 100 µM
OVCAR-4 ovarian
  GI50: > 100 µM
  TGI: > 100 µM
HCT-15 colon
  GI50: > 100 µM
  TGI: > 100 µM
SNB-19 CNS
  GI50: > 100 µM
  TGI: > 100 µM
NCI-H460 lung
  GI50: > 100 µM
  TGI: > 100 µM
HOP-62 NSCLC
  GI50: > 100 µM
  TGI: > 100 µM
MALME-3M melanoma
  GI50: > 100 µM
  TGI: > 100 µM
HL-60(TB) leukemia
  GI50: > 100 µM
  TGI: > 100 µM
SW-620 colon
  GI50: > 100 µM
  TGI: > 100 µM
OVCAR-8 ovarian
  GI50: > 100 µM
  TGI: > 100 µM
MCF7 breast
  GI50: > 100 µM
  TGI: > 100 µM
786-0 renal
  GI50: > 100 µM
  TGI: > 100 µM
OVCAR-5 ovarian
  GI50: > 100 µM
  TGI: > 100 µM
SF-539 CNS
  GI50: > 100 µM
  TGI: > 100 µM
NCI-H23 lung
  GI50: > 100 µM
  TGI: > 100 µM
T-47D breast
  GI50: > 100 µM
  TGI: > 100 µM
SK-MEL-28 melanoma
  GI50: > 100 µM
  TGI: > 100 µM
NCI-H322M lung
  GI50: 24.4 µM
  TGI: > 100 µM
MDA-MB-435
  GI50: > 100 µM
  TGI: > 100 µM
A498 renal
  GI50: > 100 µM
  TGI: > 100 µM
HCC-2998 colon
  GI50: > 100 µM
  TGI: > 100 µM
SR leukemia
  GI50: > 100 µM
  TGI: > 100 µM
NCI/ADR-RES ovarian
  GI50: > 100 µM
  TGI: > 100 µM
